# AlphaSeq binding of Ab-14 light chain variants to a spike HR2 peptide

Data: MIT Lincoln Laboratory AlphaSeq set, Engelhart et al. 2022, doi:10.1038/s41597-022-01779-4, as distributed in FLAb.

Antigen: PDVDLGDISGINAS, a 14-residue peptide of the SARS-CoV-2 spike HR2 region.

The variants keep the heavy chain, the linker and the frameworks of Ab-14 (scFv order VH, the linker GGGGSGGGGSGGGGS, VL).
VH: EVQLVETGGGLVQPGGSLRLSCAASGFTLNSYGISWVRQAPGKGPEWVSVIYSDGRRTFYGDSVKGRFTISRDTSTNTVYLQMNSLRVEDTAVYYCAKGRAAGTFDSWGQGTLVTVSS
VL: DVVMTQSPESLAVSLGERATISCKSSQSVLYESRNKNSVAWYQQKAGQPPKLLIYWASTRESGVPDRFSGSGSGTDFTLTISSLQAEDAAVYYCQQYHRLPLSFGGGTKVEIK

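The starting antibody came from a phage panning campaign against this peptide. AAYL50 was designed without a model: most single CDR substitutions and a random sample of double and triple ones. In AlphaSeq, yeast of one mating type display the scFv and yeast of the other type display the target. Binding brings cells together so that they mate, and sequencing counts the barcode pairs among the diploids. Each replicate has its own calibration line, from reference interactions of the BCL2 family. Each pool was mated in three replicate cultures.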

Changes read parent residue, position, new residue, counted from the first residue of the VL shown.
This list gathers variants with a substitution at W56 (VL, numbered from residue 1).
The read-out is the apparent dissociation constant on a log10 scale (nM): the lower, the stronger.
Averages over replicates are reported, and they cover detected replicates only.
A pair that was not seen in that replicate is written "nd"; this usually means weak binding, but a binder can also be missed.
Three control strains display no target. For library AAYL50, 18% of the pairings with them gave a signal, with a median of 4.19 and one signal in twenty below 2.99, so weak values seen in few replicates may be background.
For reference, the parent read 0.65 as the reference entry and 1.68 as a member of this library.

| changes | log10 Kd, replicates | mean, log10 nM |
|---|---|---|
| S38F W56M E61N | 2.05 1.87 2.14 | 2.02 |
| R34W V39G W56S | nd nd nd | nd |
| W56M Q95C L100I | 0.45 0.65 0.53 | 0.55 |
| N37M W56V S62H | nd nd nd | nd |
| S38H W56I P101S | nd nd 3.93 | 3.93 |
| E32R W56F | 2.72 2.26 2.25 | 2.41 |
| K36D W56Q R99H | 0.96 1.22 1.34 | 1.17 |
| S33F W56M | nd nd nd | nd |
| V39I W56H S62V | 0.40 0.70 0.60 | 0.57 |
| W56N S62A L102H | -0.16 0.49 0.01 | 0.11 |
| R34D W56F S62A | 1.92 1.99 2.30 | 2.07 |
| Q27I N37Y W56A | 0.40 0.56 0.65 | 0.53 |
| V39Q W56M R99C | nd 4.78 nd | 4.78 |
| W56A R60M R99V | 1.30 1.18 1.33 | 1.27 |
| L30C N37R W56H | 0.51 0.74 0.70 | 0.65 |
| A40N W56K T59E | nd nd nd | nd |
| N35P W56R Q95Y | nd nd 5.20 | 5.20 |
| S26G E32R W56T | 2.19 1.94 1.72 | 1.95 |
| W56Y Q96D P101I | nd nd nd | nd |
| W56R | 0.93 1.14 1.08 | 1.05 |
| K36G W56T R60M | nd nd 2.85 | 2.85 |
| N35Y W56G A57V | -0.01 0.31 0.03 | 0.11 |
| W56H A57P E61S | nd 4.41 4.53 | 4.47 |
| S26D W56V S62F | nd nd 3.15 | 3.15 |
| S25G W56E S58L | -0.26 0.09 -0.16 | -0.11 |
| S26Q W56D T59Y | 0.06 0.51 0.34 | 0.30 |
| A40V W56M | nd nd nd | nd |
| S25R W56N Q95F | 0.04 0.22 0.02 | 0.09 |
| S33E W56F H98S | 0.05 0.32 0.10 | 0.16 |
| S38E W56C P101N | nd nd 2.86 | 2.86 |
| W56E S62V Y97H | nd nd nd | nd |
| K24L W56L E61K | nd 2.69 2.57 | 2.63 |
| N35F V39Y W56D | nd nd nd | nd |
| S28W K36T W56T | nd nd nd | nd |
| V29T W56C | 1.16 1.25 1.35 | 1.25 |

For reference, 5 entries of the list once more:

changes,"log10 Kd, replicates","mean, log10 nM"
R34W V39G W56S,nd nd nd,nd
V29T W56C,1.16 1.25 1.35,1.25
Q27I N37Y W56A,0.40 0.56 0.65,0.53
S38E W56C P101N,nd nd 2.86,2.86
W56A R60M R99V,1.30 1.18 1.33,1.27